Source: ChEMBL document CHEMBL1926607 (J Med Chem, 2011)

Protein sequences, listed by entry. Tags and fused reporters are not part of them.
UniProt P08908, whole entry: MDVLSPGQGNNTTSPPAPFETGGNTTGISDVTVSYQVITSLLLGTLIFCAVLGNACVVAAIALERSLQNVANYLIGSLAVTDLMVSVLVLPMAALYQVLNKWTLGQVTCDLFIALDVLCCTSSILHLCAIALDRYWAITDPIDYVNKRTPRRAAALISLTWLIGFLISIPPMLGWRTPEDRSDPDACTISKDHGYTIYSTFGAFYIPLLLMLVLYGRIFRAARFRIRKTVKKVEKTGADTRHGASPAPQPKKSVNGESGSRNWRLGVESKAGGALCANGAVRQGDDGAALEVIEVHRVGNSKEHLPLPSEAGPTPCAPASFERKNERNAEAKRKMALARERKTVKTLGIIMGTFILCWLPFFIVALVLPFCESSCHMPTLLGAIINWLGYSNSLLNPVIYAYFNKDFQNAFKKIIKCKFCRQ

Biological target: 5-hydroxytryptamine receptor 1A (Homo sapiens, UniProt P08908)
Assay: Agonist activity at human 5HT1A receptor expressed in human HeLa cells assessed as inhibition of forskolin-stimulated cAMP production pretreated 20 mins before forskolin challenge measured after 2 hrs by RIA relative to control
Format: functional, cell-based

Emax: 94.6%
Structure (SMILES): O=C1C2CCCN2C(=O)N1CCCCNCC1CCc2ccccc2O1 (racemic)
